The values that follow are results of earlier work, collected in publication PMC3095849 (Bioorganic & medicinal chemistry, 2011).

Protein sequences, listed by entry. Tags and fused reporters are not part of them. Lines headed by an entry give the natural chain unless they say otherwise; changes in a name come on top.
UniProt P41145: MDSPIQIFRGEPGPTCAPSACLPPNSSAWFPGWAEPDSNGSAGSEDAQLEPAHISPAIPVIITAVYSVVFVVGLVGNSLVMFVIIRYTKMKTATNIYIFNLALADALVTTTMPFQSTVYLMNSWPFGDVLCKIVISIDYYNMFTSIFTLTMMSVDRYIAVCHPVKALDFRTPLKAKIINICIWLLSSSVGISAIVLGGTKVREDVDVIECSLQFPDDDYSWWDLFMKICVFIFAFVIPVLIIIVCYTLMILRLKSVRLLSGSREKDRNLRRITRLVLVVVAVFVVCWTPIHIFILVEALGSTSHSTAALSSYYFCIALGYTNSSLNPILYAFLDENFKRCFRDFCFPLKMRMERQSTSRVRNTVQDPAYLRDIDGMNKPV

In the data set the target is human κ opioid receptor (Homo sapiens, UniProt P41145). As to conditions: cited from earlier work.

For the compound `Oc1ccc2c(c1)[C@@]13CCCC[C@H]1[C@@H](C2)N(CC1CCC1)CC3` [Compound 1, butorphan], the “Selectivity μ : κ : δ” value is listed as 3/1/75.
